Several values for one entry are separate records, joined by “and”; a condition that tells them apart may be missing. Equal entries are not always repeated.
System: platelets
Assay: Ex vivo platelet aggregation in canine coronary thrombosis model
Set-up: species or system dog
Details: 3 mg/kg
Experimental: For all ex vivo studies (see FIG. 3), control aggregation values were standardized to the percentages of light transmission observed in PRP and PPP samples (0% and 100%, respectively).
Animals were randomly assigned to two treatment groups: vehicle control (i.e., normal saline) or RGD peptides at various concentrations. Peptides were administered intra-atrially in both bolus and continuous injections. Each bolus injection consisted of 0.5 to 10 mg/kg and was administered 15 minutes before application of the current. A continuous infusion of the same peptide was then started immediately after completion of this initial injection. Animals received a 25 μg/kg/min to 200 μg/kg/min infusion. The anti-thrombotic effects of the peptides were monitored until 30 minutes after the occurrence of a persistent, occlusive thrombus or five hours after the initiation of electrical stimulation (whichever resulted first). […]
Platelet counts and ex vivo aggregation studies were performed one hour before and 1, 3, and 5 hours after application of anodal direct current. Samples of arterial blood were drawn into plastic syringes containing 3.8% trisodium citrate (giving a 1:10 final dilution) and platelet aggregation determined as described in Example V.
Platelet aggregation was also determined ex vivo at one, three, and five hours after current application. […]

Substance: R(Pen)GRGDWPCR [4R]
- ex vivo aggregation reduced relative to control (one hour): 20-58%
- ex vivo aggregation reduced relative to control (three and five hours): 75-100% and 72-100%

Reference: patent US5780303A, “Method and composition for treating thrombosis” (priority 1995, dated 1998)
